Earlier results on 1 compound are cited in patent publication US20070281995A1, “Creatine analog prodrugs, compositions and uses thereof” (XenoPort, Inc., priority 2006, published 2007).

For the data set the following is noted: ALS.

As to `Nc1nc2ccc(OC(F)(F)F)cc2s1` [riluzole], the extension of survival result is “about three”.
